Measured values from PubChem BioAssay AID1229 (Sanford-Burnham Center for Chemical Genomics, 2008).
This is one part of the list. The source made the active and inactive calls.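 The calls were made as follows: active = diaphorase activity raised at least twofold by the compound at 20 µM; inactive = activation factor below 2.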

Assay: compounds boosting diaphorase resazurin reduction – biochemical, uHTS, resorufin fluorescence, counter-screen for diaphorase-coupled primary assays, primary screen (AID 1229)
Details: Diaphorase/resazurin coupled assay, 16 min, at 20 µM; active compounds read high, 1 = vehicle wells, 0 = NADH-free wells
How it was run: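 Test system: Clostridium kluyveri diaphorase, purified enzyme; input: enzyme 0.07 U/mL final; buffer or medium: 50 mM HEPES pH 7.4 with 4.542 mM MgCl2, 0.005% Tween 20; also added: 0.114 mM NADH and 0.1 mM resazurin, final amounts; schedule: 16 min enzyme reaction, ambient temperature; technique: fluorescence of resorufin, 544 nm excitation, 590 nm emission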

SMILES | activation factor
CCOP1(=S)c2c(C)nn(CCC#N)c2N=C(c2ccc(F)cc2)N1C (configuration not stated) | inactive
CC1=NCCc2c1[nH]c1ccccc21.O=[N+]([O-])c1cc([N+](=O)[O-])c(O)c([N+](=O)[O-])c1 | inactive: 1.1
O=[N+]([O-])c1ccc2c(c1)nnn2O | inactive
O=P(Nc1nccs1)(c1ccccc1)c1nc2ccccc2s1 (configuration not stated) | inactive
CCOP1(=S)c2c(C)nn(CCC#N)c2N=C(c2ccccc2F)N1C (configuration not stated) | inactive
CN1CCCCC1COC(=O)C1(O)c2ccccc2CCc2ccccc21 (configuration not stated) | inactive
COc1ccccc1OP(C)(=O)Nc1c(C)cccc1C (configuration not stated) | inactive
CP(=O)(Nc1ccc(SC(F)(F)F)cc1)Oc1ccccc1 (configuration not stated) | inactive: 1
CCCOc1ccc(NP(C)(=O)Oc2ccc(Cl)cc2)cc1 (configuration not stated) | inactive: 1
Cc1ccc(OCC(=O)OC2CN3CCC2CC3)cc1 (configuration not stated) | inactive
CN(C)C1(CNC(=O)c2ccc(S(C)(=O)=O)cc2)CCCCC1 | inactive
Cc1nc2ccc3ccccc3c2s1.O=[N+]([O-])c1cc([N+](=O)[O-])c(O)c([N+](=O)[O-])c1 | inactive
O=[N+]([O-])c1cc([N+](=O)[O-])c(-n2nnc3ccccc32)c([N+](=O)[O-])c1 | inactive
O=P1(Nc2ccccn2)COc2ccccc2OC1 | inactive
CP(=O)(Nc1ccc2c(c1)OCCO2)Oc1ccccc1 (configuration not stated) | inactive
Cc1ccccc1NP(C)(=O)Nc1ccccc1C | inactive: 1
CC(C)C(=O)NC(Sc1ccccc1)C(Cl)(Cl)Cl (configuration not stated) | inactive
c1nnnn1CCn1cnnn1 | inactive
CCOP(C)(=S)SCC(=O)NC(C)(CC)C(=O)O (configuration not stated) | inactive
O=[N+]([O-])c1cc([N+](=O)[O-])c(NCC2CCS(=O)(=O)C2)c([N+](=O)[O-])c1 (configuration not stated) | inactive: 0.8
CC(=O)NC(SC(=S)N(C)C)C(Cl)(Cl)Cl (configuration not stated) | inactive
COc1ccc(OP(C)(=O)Nc2cccc(Br)c2)cc1 (configuration not stated) | inactive
COc1ccc(NP(C)(=O)Oc2ccccc2OC)cc1 (configuration not stated) | inactive: 1

SMILES | activation factor
CN(C)CCOC(=O)C(O)(c1ccccc1)C1CCCCC1 (configuration not stated) | inactive: 1
CCC(=O)N1C2C3N(C(=O)CC)C1C1N(C(=O)CC)C(C(N1C(=O)CC)N3C(=O)CC)N2C(=O)CC | inactive
CCN(CC)CCCOC(=O)C(O)(c1ccccc1)C1CCCCC1 (configuration not stated) | inactive: 1
Cc1ccc(OP(=O)(Nc2ccccn2)Oc2ccc(C)cc2)cc1 | inactive
CC(=O)NC(SC(=S)N(CC(C)C)CC(C)C)C(Cl)(Cl)Cl (configuration not stated) | inactive
COC(=O)c1cc2c(s1)N=C(c1ccccc1)N(C)P2(=O)N1CCOCC1 (configuration not stated) | inactive
CP(=O)(Nc1ccccc1)Oc1ccc(F)cc1 (configuration not stated) | inactive: 1
CCOC(=O)NC(Sc1ccccc1)C(Cl)(Cl)Cl (configuration not stated) | inactive
CCNC(=S)/N=C(\N)N[N+](=O)[O-] | inactive
COc1ccc(OP(C)(=O)Nc2ccc(SC(F)(F)F)cc2)cc1 (configuration not stated) | inactive: 1
CCOC(=O)c1ccc(NP(C)(=O)Oc2ccc(F)cc2)cc1 (configuration not stated) | inactive: 1
O=C(OCCN1CCN(CCOCc2ccccc2)CC1)C(O)(c1ccccc1)c1ccccc1 | inactive
O=P1(Nc2nc3ccc(Cl)cc3s2)COc2ccccc2O1 (configuration not stated) | inactive
CC(C)c1ccc(OP(C)(=O)Nc2ccc(SC(F)(F)F)cc2)cc1 (configuration not stated) | inactive: 0.7
CC(C)(C)C(=O)NC(Sc1ccccc1)C(Cl)(Cl)Cl (configuration not stated) | inactive
CP(=O)(Nc1ccccc1F)Oc1ccccc1 (configuration not stated) | inactive: 1
O=[N+]([O-])c1cc([N+](=O)[O-])c(Nc2ccccn2)c([N+](=O)[O-])c1 | inactive
Cc1c(NP(C)(=O)Oc2ccc(C(C)C)cc2)c(=O)n(-c2ccccc2)n1C (configuration not stated) | inactive: 1.1
CCc1ccc(OP(C)(=O)O)cc1 | inactive: 1
COc1ccccc1OP(C)(=O)Nc1ccc(C)cc1C (configuration not stated) | inactive
CP(=O)(Nc1ccccn1)Oc1ccccc1 (configuration not stated) | inactive
CN(C)CCOC(=O)C(O)(c1ccccc1)C1CCCC1 (configuration not stated) | inactive: 1
COc1ccc(OP(C)(=O)Nc2ccccn2)cc1 (configuration not stated) | inactive

SMILES | activation factor
COc1ccccc1OP(=O)(Nc1ccc(C)cn1)Oc1ccccc1OC | inactive
Cc1nc2ccc3ccccc3c2o1.O=[N+]([O-])c1cc([N+](=O)[O-])c(O)c([N+](=O)[O-])c1 | inactive: 0.5
CP(=O)(OCCOc1ccccc1)OCCOc1ccccc1 | inactive: 1
CP(=O)(Nc1ccc(Cl)cc1Cl)Oc1ccccc1 (configuration not stated) | inactive
Cc1cc(C)cc(OP(C)(=O)Nc2cccc(C(F)(F)F)c2)c1 (configuration not stated) | inactive: 0.8
COc1ccc(OP(C)(=O)Nc2ccccc2Br)cc1 (configuration not stated) | inactive
COc1ccccc1OP(C)(=O)Nc1ccc(C)c(C)c1 (configuration not stated) | inactive
CCOP(=O)(Nc1ccccc1)OCC | inactive
CP(=O)(OC12CC3CC(CC(C3)C1)C2)OC12CC3CC(CC(C3)C1)C2 | inactive: 0.8
CCOC(=O)c1ccc(NP(C)(=O)Oc2ccc(Cl)cc2)cc1 (configuration not stated) | inactive: 1
CP(=O)(Nc1ccc(Cl)cc1)Oc1ccc(F)cc1 (configuration not stated) | inactive
CC(C)(C)c1ccc(OP(C)(=O)O)cc1 | inactive
COc1ccccc1OP(C)(=O)Nc1ccccc1Br (configuration not stated) | inactive
CN(C)C(=O)c1c([N+](=O)[O-])cc([N+](=O)[O-])cc1[N+](=O)[O-] | inactive
COc1ccc(OP(C)(=O)Nc2ccc(Br)cc2)cc1 (configuration not stated) | inactive: 0.8
CCN(CC)CC(O)COC(=O)C(O)(c1ccccc1)C1CCCCC1 (configuration not stated) | inactive
CCc1ccc(OP(C)(=O)Nc2cccnc2)cc1 (configuration not stated) | inactive
Cc1ccc(NP(=O)(Oc2ccccc2)Oc2ccccc2)nc1 | inactive
CP(=O)(Oc1ccccc1)N1CCOC1=O (configuration not stated) | inactive: 1
COc1ccccc1OP(C)(=O)Nc1c(C)n(C)n(-c2ccccc2)c1=O (configuration not stated) | inactive
CC(=O)N1C2C3N(C(C)=O)C1C1N(C(C)=O)C(C(N1C(C)=O)N3C(C)=O)N2C(C)=O | inactive
